{"sequences": {"note": "Protein sequences, listed by entry. Tags and fused reporters are not part of them.", "UniProt Q01959, whole entry": "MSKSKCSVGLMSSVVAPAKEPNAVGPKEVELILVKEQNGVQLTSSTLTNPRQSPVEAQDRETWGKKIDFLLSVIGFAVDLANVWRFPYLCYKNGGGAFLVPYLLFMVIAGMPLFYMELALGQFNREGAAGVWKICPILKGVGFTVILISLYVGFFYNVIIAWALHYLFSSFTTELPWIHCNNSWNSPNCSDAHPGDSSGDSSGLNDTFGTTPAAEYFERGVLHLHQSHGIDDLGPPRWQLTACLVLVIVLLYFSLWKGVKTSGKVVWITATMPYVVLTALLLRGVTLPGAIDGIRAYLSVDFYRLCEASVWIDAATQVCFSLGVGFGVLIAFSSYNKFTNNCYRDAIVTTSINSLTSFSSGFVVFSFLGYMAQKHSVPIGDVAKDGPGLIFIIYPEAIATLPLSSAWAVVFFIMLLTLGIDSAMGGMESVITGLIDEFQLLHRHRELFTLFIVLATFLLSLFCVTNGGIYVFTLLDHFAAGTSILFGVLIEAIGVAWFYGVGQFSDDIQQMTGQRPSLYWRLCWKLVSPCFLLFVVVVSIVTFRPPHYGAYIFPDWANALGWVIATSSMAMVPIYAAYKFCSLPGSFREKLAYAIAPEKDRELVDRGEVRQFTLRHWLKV", "UniProt Q01959, whole entry W84L": "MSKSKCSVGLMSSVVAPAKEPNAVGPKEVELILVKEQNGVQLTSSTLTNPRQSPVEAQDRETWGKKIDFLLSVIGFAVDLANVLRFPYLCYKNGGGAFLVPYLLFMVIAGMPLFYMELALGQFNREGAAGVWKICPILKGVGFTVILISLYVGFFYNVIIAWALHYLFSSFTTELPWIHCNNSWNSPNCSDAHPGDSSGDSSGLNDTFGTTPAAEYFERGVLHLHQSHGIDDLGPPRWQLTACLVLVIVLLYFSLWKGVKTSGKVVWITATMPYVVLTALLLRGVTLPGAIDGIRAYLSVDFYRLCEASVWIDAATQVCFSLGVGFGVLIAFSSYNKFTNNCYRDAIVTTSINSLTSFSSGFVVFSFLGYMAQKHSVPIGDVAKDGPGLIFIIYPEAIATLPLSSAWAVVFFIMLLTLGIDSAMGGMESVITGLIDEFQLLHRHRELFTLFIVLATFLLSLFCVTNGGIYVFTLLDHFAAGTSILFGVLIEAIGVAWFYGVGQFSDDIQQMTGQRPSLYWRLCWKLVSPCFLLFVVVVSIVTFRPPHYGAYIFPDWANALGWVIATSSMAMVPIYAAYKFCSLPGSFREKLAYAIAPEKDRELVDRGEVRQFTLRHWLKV"}, "source": "paper PMC3517300", "about": "(Journal of neurochemistry, 2012)", "key": {"[1]": {"biological_target": "human dopamine transporter (DAT WT) (Homo sapiens, UniProt Q01959)", "experiment": "[^3H]CFT binding in intact HEK 293-hDAT cells"}, "W84L DAT mutant": {"biological_target": "W84L DAT mutant (Homo sapiens, UniProt Q01959, W84L)", "experiment": "[^3H]CFT binding in intact HEK 293 cells expressing W84L DAT", "conditions": "W84L hDAT"}}, "note": "Like-named read-outs stand apart in the source and are kept apart here."}
{"substance": "(–)-2-β-carbomethoxy-3-β-(4-fluorophenyl)tropane [CFT]", "values": [{"measurement": "[^3H]CFT Binding Bmax", "setting": "[1]; 5.0 mM mβCD then 200 µM CHOL 2 hrs", "value": "3.98 ± 0.62", "unit": "pmol/mg"}, {"measurement": "[^3H]CFT Binding Bmax", "setting": "[1]; cells pretreated 5.0 mM mβCD 30 min 37°C", "value": "3.07 ± 0.57", "unit": "pmol/mg"}, {"measurement": "Kd", "setting": "[1]; read-out: [^3H]CFT Binding Kd, 5.0 mM mβCD then 200 µM CHOL 2 hrs", "value": "14.6 ± 2.07", "unit": "nM"}, {"measurement": "Kd", "setting": "[1]; read-out: [^3H]CFT Binding Kd, cells pretreated 5.0 mM mβCD 30 min 37°C", "value": "17.8 ± 2.17", "unit": "nM"}, {"measurement": "Kd", "setting": "[1]; read-out: [^3H]CFT Binding Kd, vehicle (control), 15 min, 25°C", "value": "15.6 ± 1.97", "unit": "nM"}, {"measurement": "[^3H]CFT Binding Bmax", "setting": "[1]; vehicle (control), 15 min, 25°C", "value": "3.68 ± 0.46", "unit": "pmol/mg"}, {"measurement": "[^3H]CFT Binding Bmax", "setting": "W84L DAT mutant; cells pretreated 2.5 mM mβCD 30 min 37°C", "value": "4.42 ± 0.73", "unit": "pmol/mg"}, {"measurement": "[^3H]CFT Binding Bmax", "setting": "W84L DAT mutant; vehicle", "value": "4.77 ± 0.85", "unit": "pmol/mg"}, {"measurement": "Kd", "setting": "W84L DAT mutant; read-out: [^3H]CFT Binding Kd, vehicle", "value": "2.58 ± 0.46", "unit": "nM"}]}
